This note sets out measurements from patent publication US10188770B2, “Dental implant having enhanced early stability and method for manufacturing same” (OSSTEMIMPLANT CO., LTD., priority 2014, dated 2019).

The experiment relates to implant-bone interface. The experiment is described as follows: Removal torque of coated implants just after coating and after 3-year storage. The experiment is classed as in vivo. Conditions: implant coated with 1 μg rhBMP-2 only. On the procedure: In order to confirm the long-time storage stabilities of implant, osseointegration at implant-bone interface were measured via removal torque.
Each dental implant was coated with various bisphosphonates as described example 1 and its removal torque was measured just after coating step and 3-year self-storage, respectively.
Similarly, osseointegration at implant-bone interface were measured via removal torque for dental implants wherein the osteoclast activity inhibitor coating film further comprises a bone growth factor (BMP-2) as shown in Table 2.

B1: rhBMP-2 (protein, UniProt P12643 283-396, looked up)
Bone morphogenetic protein 2: QAKHKQRKRLKSSCKRHPLYVDFSDVGWNDWIVAPPGYHAFYCHGECPFPLADHLNSTNHAIVQTLVNSVNSKIPKACCVPTELSAISMLYLDENEKVVLKNYQDMVVEGCGCR
notes: bone growth factor, an osteogenic protein, coated on the implant
Regarding B1, the Removal torque is, setting by setting: (storage period 0 year) 108.2 ± 10.6; (storage period 3 year) 104.9 ± 11.4.
